Apparent affinities of Ab-14 variants for a coronavirus HR2 peptide

Data: MIT Lincoln Laboratory AlphaSeq set, Engelhart et al. 2022, doi:10.1038/s41597-022-01779-4, as distributed in FLAb.

Antigen: PDVDLGDISGINAS, a 14-residue peptide of the SARS-CoV-2 spike HR2 region.

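The parent was found by panning a naive human phage display library on the peptide. The library (AAYL49) carries one to three amino acid substitutions per variant, with no insertions or deletions. In AlphaSeq, yeast of one mating type display the scFv and yeast of the other type display the target. After mating in shaken culture at 30 °C for 16 h, diploids were selected and their barcode pairs sequenced. The ratio of observed to expected reads was calibrated, replicate by replicate, on BCL2-family standards whose Kd was known from biolayer interferometry. The assay was run in three technical replicates.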

Each scFv is VH, the linker GGGGSGGGGSGGGGS, VL, as in the parent Ab-14, and differs from it in the CDRs of the heavy chain only.
VH: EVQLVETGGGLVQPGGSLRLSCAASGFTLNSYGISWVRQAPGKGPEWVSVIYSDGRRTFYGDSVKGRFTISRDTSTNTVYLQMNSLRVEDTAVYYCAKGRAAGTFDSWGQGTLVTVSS
VL: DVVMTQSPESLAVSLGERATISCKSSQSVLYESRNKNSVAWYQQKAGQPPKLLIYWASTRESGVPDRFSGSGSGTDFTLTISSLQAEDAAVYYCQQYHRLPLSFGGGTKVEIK

Variants are written as CDR1, CDR2 and CDR3 of the heavy chain (limits as in the source). Parent: GFTLNSYGIS, VIYSDGRRTFYGDSVK, GRAAGTFDS.
The read-out is the apparent dissociation constant on a log10 scale (nM): the lower, the stronger.
A pair that was not seen in that replicate is written "n.d."; this usually means weak binding, but a binder can also be missed.

CDR-H1,CDR-H2,CDR-H3,"log10 Kd, replicates",control signals
GKTLNSYGIS,VIYSDYRRTFYGDSVK,GRAAGTFTS,n.d. / n.d. / 5.55,1/9 (3.74)
GITLNSYGCS,VIYSDGRRTHYGDSVK,GRAAGTFDS,n.d. / 5.05 / 3.95,4/9 (4.30)
RFTLNSGGIS,WIYSDGRRTFYGDSVK,GRAAGTFDS,4.06 / n.d. / n.d.,6/9 (4.49)
GFTLNSSGIS,EIYSDGRRTFYGDSVK,RRAAGTFDS,n.d. / n.d. / n.d.,1/9 (4.28)
GFTLNSYGIS,VIYSDGRRTFYGNSNK,GRAAGTFDL,3.27 / 2.64 / 3.90,2/9 (4.96)
GFTLNSYGIS,VIESDGRRTFYPDSVK,GRAAATFDS,n.d. / n.d. / n.d.,2/9 (2.96)
GFTGNSYDIS,VIYSDGRRTFYGDSVK,GRANGTFDS,n.d. / n.d. / 5.12,1/9 (3.27)
GFTLNSYGIS,VIYSDLRRTFYGDSVF,GRAAGTFDQ,n.d. / 3.73 / 5.22,2/9 (4.28)
GFTCNSYGIS,VIQSDGRRTFYGDSVK,GRAANTFDS,n.d. / n.d. / n.d.,3/9 (3.73)
GFTLNYYGIS,VIYSDGRGTFYGDSVK,NRAAGTFDS,n.d. / n.d. / n.d.,0/9
GFTLNSYWIS,VIYSDGRSTFYGDSPK,GRAAGTFDS,n.d. / n.d. / n.d.,1/9 (3.03)
AFTLNSCGIS,VIYSDGRRTFYGDSVK,GRAAGTFDS,4.34 / n.d. / n.d.,1/9 (4.38)
GFTLNSYGIS,VMYSDGRRTFYGDSVK,GRAAGTFDS,n.d. / n.d. / n.d.,0/9
GFTLNSYGIS,DIYSDGFRTFYGDSVK,GRAAGTFIS,4.97 / n.d. / 3.27,1/9 (3.59)
GFTLNSYCIS,VIYSDGRRTFYGDSVK,GRAAGTFHS,n.d. / 4.16 / n.d.,2/9 (3.43)
GFTLNSYGIS,VIYSDGRRTFYGDSSK,GYAAGTFLS,5.93 / 3.50 / n.d.,4/9 (4.46)
GFTLNSYGIS,DIYSDGERTFYGDSVK,GRAAGTFTS,n.d. / n.d. / n.d.,0/9
GFTRNSYGIS,VIYSWGRRTFMGDSVK,GRAAGTFDS,n.d. / n.d. / n.d.,3/9 (3.46)
GFTLNSYGII,VIYSDGRREFYGDSVK,GRAAGYFDS,n.d. / n.d. / n.d.,1/9 (4.12)
GFTLNSYGWS,VIYCDGRRTFYGISVK,GRAAGTFDS,n.d. / n.d. / n.d.,1/9 (3.63)
GFTLNEYGIS,VIYSDVRRTFYGDSVK,GRAAGTGDS,n.d. / n.d. / n.d.,2/9 (3.46)
GLTLNSYGIS,VINEDGRRTFYGDSVK,GRAAGTFDS,n.d. / n.d. / n.d.,1/9 (2.75)
GFPLNSYGIV,VIYSDGRRTFYGDSVK,PRAAGTFDS,4.87 / 4.49 / n.d.,4/9 (4.20)
GFTLQSYGIS,EIYSDGRRTFYGDSVK,GRDAGTFDS,n.d. / n.d. / n.d.,0/9
GFTLNSYNIS,SIYSDGRRTFYGDSVK,GRAAGTQDS,n.d. / n.d. / 4.34,0/9
GFTLNSYGIS,VIYSDGRRTRYGTSVK,GRAAGTTDS,n.d. / n.d. / n.d.,4/9 (3.83)
GFTLNSYGIS,VIYSYGRRTFYGDSGK,GRAAGTFLS,n.d. / n.d. / n.d.,1/9 (3.18)
GFTLNSYGIS,VIYSDGRRTFYGKSVP,GRWAGTFDS,5.17 / 3.69 / 5.50,7/9 (4.50)
GFHANSYIIS,VIYSDGRRTFYGDSVK,GRAAGTFDS,5.81 / n.d. / n.d.,0/9
GFTLNSYGIS,VQYSDGDRTFYGDSVN,GRAAGTFDS,n.d. / n.d. / n.d.,0/9
GFTLNQYGIS,VIYSDGRRTFYGDSSK,GRAAGTFDS,2.22 / 2.17 / 2.54,1/9 (3.81)
GFTLNSYGIS,VIYSFGRRTYYGDSVK,GRAAGTTDS,n.d. / n.d. / n.d.,0/9
NFTLNSYGIV,VIYSDGRRTFYGDSVL,GRAAGTFDS,5.08 / n.d. / n.d.,1/9 (2.30)
GFTLNSYGIS,VIYSDGRRTFRHDSVK,GRAWGTFDS,n.d. / n.d. / n.d.,0/9
SFNLNSYGID,VIYSDGRRTFYGDSVK,GRAAGTFDS,n.d. / n.d. / n.d.,0/9
GFTLSSTGIS,VIYSDGRRTFYGDSVK,GRAAGTFDW,n.d. / n.d. / n.d.,1/9 (2.71)
GFTLGSYGIS,VIYSDGRRTFYGMSVK,GRAAGTFDS,3.45 / n.d. / n.d.,1/9 (4.44)
NFTLNSPGIS,VIYSGGRRTFYGDSVK,GRAAGTFDS,n.d. / n.d. / n.d.,0/9
DFTLNSYGMS,VIYSDGRRTFYGDSVK,GRAAGTGDS,n.d. / n.d. / n.d.,0/9
GFTLNSYGIS,VIYSGHRRTFMGDSVK,GRAAGTFDS,n.d. / n.d. / n.d.,0/9
GFTLNSYGIS,VIHSDGRRSFYGRSVK,GRAAGTFDS,n.d. / n.d. / n.d.,0/9
GFTDNSYGIS,VIYSDGRRTFYGDSVK,GRNAGTFDS,n.d. / n.d. / n.d.,0/9
GFTLNSYSIS,AIYSDGRRTFYGDSVN,GRAAGTFDS,n.d. / n.d. / n.d.,1/9 (4.41)
GFTLNSYGIS,GIYSDGRRTFYVPSVK,GRAAGTFDS,5.49 / 5.14 / n.d.,3/9 (4.13)
GPTLNSYGDS,VIASDGRRTFYGDSVK,GRAAGTFDS,n.d. / 4.98 / n.d.,0/9

3 of these entries, quoted again:

{"CDR-H1": "GPTLNSYGDS", "CDR-H2": "VIASDGRRTFYGDSVK", "CDR-H3": "GRAAGTFDS", "log10 Kd, replicates": "n.d. / 4.98 / n.d.", "control signals": "0/9"}
{"CDR-H1": "GFPLNSYGIV", "CDR-H2": "VIYSDGRRTFYGDSVK", "CDR-H3": "PRAAGTFDS", "log10 Kd, replicates": "4.87 / 4.49 / n.d.", "control signals": "4/9 (4.20)"}
{"CDR-H1": "GFTLNSSGIS", "CDR-H2": "EIYSDGRRTFYGDSVK", "CDR-H3": "RRAAGTFDS", "log10 Kd, replicates": "n.d. / n.d. / n.d.", "control signals": "1/9 (4.28)"}

Parent in this assay: reference entry 0.65, copy in this library 4.11 (one replicate of three).
Empty control strains, which show no peptide, gave a signal in 15% of pairings with library AAYL49; the median was 4.06 and 95% of these signals were weaker than 2.83. No background was subtracted. For each scFv, signals with the empty controls are counted beside the result, with their mean in brackets.